Here are results for one molecule from ChEMBL document CHEMBL1123748, “Opioid agonist and antagonist activities of monofunctional nitrogen mustard analogues of beta-chlornaltrexamine” (1987).

The species entered for one assay is Cavia porcellus. The experiment in a line: Opioid agonist activity was determined as potency ratio relative to morphine in Guinea pig ileum (GPI); Transient agonism at 20 nm. Conditions: filed as agonist.
The next assay is filed under the species Mus musculus. The experiment in a line: Partial Opioid agonist activity was determined in Mouse vas deferens (MVD); Transient agonism at 200 nm. The note with it: filed as agonist.

Regarding `Oc1ccc2c3c1O[C@H]1[C@H](N(CCCl)CCCl)CC[C@@]4(O)C(C2)N(CC2CC2)CCC314` (some centres not stated), in the assay listed under Cavia porcellus, the Potency ratio entry was “Transient agonism at 20 nM”. In the assay listed under Mus musculus, the IC20 entry was “Transient agonism at 200 nM”.
